From PubChem BioAssay (NCI)
Several values for one entry are separate records, joined by “and”; a condition that tells them apart may be missing. Identical values can stand only once. The list shows a part of the results, in another mix than the full data.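 Plates (96-well) were seeded with cells, treated with compound at one concentration, and incubated for 48 hours before percent growth was determined.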 Activity calls are given as the source filed them. Rule for the calls: active = growth percent below 10; inactive = the rest.

How the values were obtained:
Experiment in all cases: NCI-60 one-dose screen, 48 h (100 = growth as untreated, 0 = no growth, -100 = all killed)
Conditions in all cases: 10 µM
NCI/ADR-RES ovarian = system: NCI/ADR-RES ovarian
T-47D breast = system: T-47D breast
BT-549 breast = system: BT-549 breast
MDA-MB-435 melanoma = system: MDA-MB-435 melanoma
SW-620 colon = system: SW-620 colon
MCF7 breast = system: MCF7 breast
HCT-116 colon = system: HCT-116 colon
HCC-2998 colon = system: HCC-2998 colon
KM12 colon = system: KM12 colon

Measured: growth

CCOc1ccc(N(CCCl)CCCl)cc1
inactive: NCI/ADR-RES ovarian 73.2% | T-47D breast 64.9% | BT-549 breast 79.7% | MDA-MB-435 melanoma 73.6% | SW-620 colon 62.9% | MCF7 breast 32.6% | HCT-116 colon 72.3% | HCC-2998 colon 97.8% | KM12 colon 90.9%

Cc1ccccc1CN(CCCl)CCCl
inactive: NCI/ADR-RES ovarian 96% | T-47D breast 96.5% | BT-549 breast 98.1% | MDA-MB-435 melanoma 111% | SW-620 colon 93.2% | MCF7 breast 97.8% | HCT-116 colon 100% | HCC-2998 colon 89.3% | KM12 colon 112%

C[N+](C)(CCCl)CCCl
inactive: NCI/ADR-RES ovarian 112% | T-47D breast 96.6% | BT-549 breast 113% | MDA-MB-435 melanoma 98.8% | SW-620 colon 104% | MCF7 breast 97.5% | HCT-116 colon 110% | HCC-2998 colon 113% | KM12 colon 110%

Cc1cc(O)c(CN(CC(C)Cl)CC(C)Cl)cc1C (centres undefined)
inactive: NCI/ADR-RES ovarian 112% | T-47D breast 85% | BT-549 breast 120% | MDA-MB-435 melanoma 100% | SW-620 colon 107% | MCF7 breast 95% | HCT-116 colon 104% | HCC-2998 colon 106% | KM12 colon 105%

COc1ccc(N)cc1CN(CCCl)CCCl
inactive: NCI/ADR-RES ovarian 70.6% | T-47D breast 49.9% | BT-549 breast 73.9% | MDA-MB-435 melanoma 98.2% | SW-620 colon 66.2% | MCF7 breast 49.8% | HCT-116 colon 62.4% | HCC-2998 colon 80.2% | KM12 colon 94.6%

c1ccc(CN2CCC(Nc3ccccc3)CC2)cc1
inactive: NCI/ADR-RES ovarian 96.1% | T-47D breast 95.7% | BT-549 breast 124% | MDA-MB-435 melanoma 102% | SW-620 colon 100% | MCF7 breast 97.7% | HCT-116 colon 113% | HCC-2998 colon 102% | KM12 colon 111%

CCOP(=O)(Cl)OCC
inactive: NCI/ADR-RES ovarian 105% | T-47D breast 93.5% | BT-549 breast 104% | MDA-MB-435 melanoma 108% | SW-620 colon 106% | MCF7 breast 93.1% | HCT-116 colon 102% | HCC-2998 colon 102% | KM12 colon 109%

N#CC(C#N)=Cc1ccc(N(CCCl)CCCl)cc1
inactive: NCI/ADR-RES ovarian 76.3% | T-47D breast 67.1% | BT-549 breast 79.2% | MDA-MB-435 melanoma 97.5% | SW-620 colon 89.5% | MCF7 breast 59.3% | HCT-116 colon 76.4% | HCC-2998 colon 96% | KM12 colon 94.3%

CCC(C)(C)c1ccc(O)c(CN(CCCl)CCCl)c1
inactive: NCI/ADR-RES ovarian 100% | T-47D breast 98.3% | BT-549 breast 82.3% | MDA-MB-435 melanoma 104% | SW-620 colon 105% | MCF7 breast 86.5% | HCT-116 colon 99.4% | HCC-2998 colon 105% | KM12 colon 108%

NC(Cc1cccc(N(CCCl)CCCl)c1)C(=O)O (centres undefined)
inactive: NCI/ADR-RES ovarian 97.2% and 104% | T-47D breast 96.1% and 99.1% | BT-549 breast 101% and 99.7% | MDA-MB-435 melanoma 102% and 105% | SW-620 colon 78.1% and 78.2% | MCF7 breast 67.7% and 60.4% | HCT-116 colon 91.7% and 97.1% | HCC-2998 colon 103% and 99.9% | KM12 colon 108% and 101%

CCNC(=O)Cc1ccc(N(CCCl)CCCl)cc1
inactive: NCI/ADR-RES ovarian 90.4% | T-47D breast 77.5% | BT-549 breast 114% | MDA-MB-435 melanoma 92.3% | SW-620 colon 74% | MCF7 breast 45.8% | HCT-116 colon 99.1% | HCC-2998 colon 93% | KM12 colon 99.8%

O=C(O)CCc1ccc(CSCCCl)cc1
inactive: NCI/ADR-RES ovarian 107% | T-47D breast 102% | BT-549 breast 107% | MDA-MB-435 melanoma 104% | SW-620 colon 105% | MCF7 breast 91.6% | HCT-116 colon 105% | HCC-2998 colon 94.8% | KM12 colon 102%

N#CC(C#N)=Cc1ccc2c(c1)OCO2
inactive: NCI/ADR-RES ovarian 103% and 105% | T-47D breast 98.4% | BT-549 breast 109% and 89.7% | MDA-MB-435 melanoma 109% and 107% | SW-620 colon 98.1% and 106% | MCF7 breast 103% and 88.6% | HCT-116 colon 96.2% and 93.6% | HCC-2998 colon 105% and 106% | KM12 colon 104% and 102%

CCCCOc1ccc(N(CCCl)CCCl)cc1
inactive: NCI/ADR-RES ovarian 101% | T-47D breast 102% | BT-549 breast 112% | MDA-MB-435 melanoma 107% | SW-620 colon 104% | MCF7 breast 86.2% | HCT-116 colon 100% | HCC-2998 colon 99.8% | KM12 colon 102%

ClCCN(CCCl)CCc1ccccc1
inactive: NCI/ADR-RES ovarian 98.3% | T-47D breast 95.3% | BT-549 breast 98.7% | MDA-MB-435 melanoma 115% | SW-620 colon 97.9% | MCF7 breast 94.1% | HCT-116 colon 101% | HCC-2998 colon 100% | KM12 colon 108%

CCCSP(=O)(CCl)N(CCCl)CCCl (centres undefined)
inactive: NCI/ADR-RES ovarian 102% | T-47D breast 93.6% | BT-549 breast 100% | MDA-MB-435 melanoma 101% | SW-620 colon 89.2% | MCF7 breast 87.6% | HCT-116 colon 106% | HCC-2998 colon 105% | KM12 colon 109%

Cc1cccc(C(=O)N(CCCl)CCCl)c1
inactive: NCI/ADR-RES ovarian 106% | T-47D breast 101% | BT-549 breast 101% | MDA-MB-435 melanoma 96.4% | SW-620 colon 102% | MCF7 breast 90.8% | HCT-116 colon 103% | HCC-2998 colon 99.6% | KM12 colon 110%

Cc1ccc(S(=O)(=O)CN(CCBr)CCBr)cc1
inactive: NCI/ADR-RES ovarian 109% | T-47D breast 101% | BT-549 breast 113% | MDA-MB-435 melanoma 105% | SW-620 colon 105% | MCF7 breast 78.7% | HCT-116 colon 107% | HCC-2998 colon 112% | KM12 colon 127%

CCOC(=O)c1ccc(N(CCCl)CCCl)cc1
inactive: NCI/ADR-RES ovarian 103% | T-47D breast 102% | BT-549 breast 103% | MDA-MB-435 melanoma 106% | SW-620 colon 104% | MCF7 breast 103% | HCT-116 colon 95.5% | HCC-2998 colon 109% | KM12 colon 111%

Cc1ccc2oc(=O)cc(CN(CCCl)CCCl)c2c1
inactive: NCI/ADR-RES ovarian 93.2% | T-47D breast 116% | BT-549 breast 97.7% | MDA-MB-435 melanoma 100% | SW-620 colon 84.8% | MCF7 breast 75.3% | HCT-116 colon 94% | HCC-2998 colon 87.9% | KM12 colon 96.9%

C1CCNCC1.O=C(O)C(O)c1ccc(N(CCCl)CCCl)cc1 (centres undefined)
inactive: NCI/ADR-RES ovarian 108% | T-47D breast 106% | BT-549 breast 95.7% | MDA-MB-435 melanoma 103% | SW-620 colon 92.5% | MCF7 breast 96.8% | HCT-116 colon 96.5% | HCC-2998 colon 108% | KM12 colon 103%

COc1cc(N(CCCl)CCCl)cc(OC)c1OC
inactive: NCI/ADR-RES ovarian 93.6% | T-47D breast 91.6% | BT-549 breast 85% | MDA-MB-435 melanoma 109% | SW-620 colon 84.5% | MCF7 breast 75.4% | HCT-116 colon 95.2% | HCC-2998 colon 96.5% | KM12 colon 102%

O=CC(O)C(O)C(O)C(O)CN(CCCl)CCCl (centres undefined)
inactive: NCI/ADR-RES ovarian 104% | T-47D breast 91.5% | BT-549 breast 101% | MDA-MB-435 melanoma 97.5% | SW-620 colon 97.8% | MCF7 breast 96.6% | HCT-116 colon 105% | HCC-2998 colon 109% | KM12 colon 99.4%

COc1cccc(N(CCCl)CCCl)c1OC
inactive: NCI/ADR-RES ovarian 73.4% | T-47D breast 74.7% | BT-549 breast 88.9% | MDA-MB-435 melanoma 95.7% | SW-620 colon 62.1% | MCF7 breast 62.3% | HCT-116 colon 68% | HCC-2998 colon 75% | KM12 colon 93.7%

O=P1(N(CCCl)CCCl)SCCCS1
inactive: NCI/ADR-RES ovarian 100% | T-47D breast 98.7% | BT-549 breast 131% | MDA-MB-435 melanoma 112% | SW-620 colon 104% | MCF7 breast 95.3% | HCT-116 colon 109% | HCC-2998 colon 100% | KM12 colon 114%

COc1cc(CN(CCCl)CCBr)cc(OC)c1
inactive: NCI/ADR-RES ovarian 113% | T-47D breast 109% | BT-549 breast 102% | MDA-MB-435 melanoma 104% | SW-620 colon 104% | MCF7 breast 96.3% | HCT-116 colon 103% | HCC-2998 colon 98.7% | KM12 colon 109%

N#CC1(Nc2ccccc2)CCN(Cc2ccccc2)CC1
inactive: NCI/ADR-RES ovarian 105% | T-47D breast 28.9% | BT-549 breast 204% | MDA-MB-435 melanoma 97.8% | SW-620 colon 103% | MCF7 breast 97.5% | HCT-116 colon 101% | HCC-2998 colon 91% | KM12 colon 101%

Oc1ccc(Br)cc1CN(CCCl)CCCl
inactive: NCI/ADR-RES ovarian 54.8% | T-47D breast 49.4% | BT-549 breast 65.3% | MDA-MB-435 melanoma 79.3% | SW-620 colon 60.1% | MCF7 breast 28.9% | HCT-116 colon 46.1% | HCC-2998 colon 73.3% | KM12 colon 83%

O/N=C/c1ccc(N(CCCl)CCCl)cc1
inactive: NCI/ADR-RES ovarian 101% | T-47D breast 93.1% | BT-549 breast 94.2% | MDA-MB-435 melanoma 93.2% | SW-620 colon 97.4% | MCF7 breast 71.8% | HCT-116 colon 94.7% | HCC-2998 colon 102% | KM12 colon 108%

O=C(O)CCCCc1ccc(N(CCCl)CCCl)cc1
inactive: NCI/ADR-RES ovarian 86.1% | T-47D breast 96.4% | BT-549 breast 88.4% | MDA-MB-435 melanoma 103% | SW-620 colon 72.3% | MCF7 breast 74.5% | HCT-116 colon 82.6% | HCC-2998 colon 88.5% | KM12 colon 96.6%

Oc1ccc(N(CCCl)CCCl)cc1
inactive: NCI/ADR-RES ovarian 92.4% | T-47D breast 105% | BT-549 breast 90.3% | MDA-MB-435 melanoma 117% | SW-620 colon 80% | MCF7 breast 56.7% | HCT-116 colon 78.3% | HCC-2998 colon 83.2% | KM12 colon 109%
